The entries are a selection whose mix differs from that of the whole data set. The source made the active and inactive calls. Rule as the data show it: active = inhibition above about 8%; inactive = the rest.

In the assay the test system is VIM-2 metallo-beta-lactamase [Pseudomonas aeruginosa]. Description: P. aeruginosa VIM-2 enzyme inhibition – biochemical, epi-absorbance, HTS, confirmation (AID 1860).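 Also: 0% = enzyme with vehicle and 100% = no enzyme.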 The note with it: purified VIM-2 enzyme, nitrocefin absorbance; at 5.6 µM; active compounds read high.

A word on the inhibition: it is the relative decrease from the control value, in per cent. In the case of `Nc1cccc2c([As](=O)(O)O)cccc12`, the inhibition was active: 8.66%.

The record behind these values is PubChem BioAssay AID1860 (The Scripps Research Institute Molecular Screening Center, 2009).
